{
  "sequences": {"note": "Amino acid sequences for entries named in this document (tags omitted).", "UniProt O15554, whole entry": "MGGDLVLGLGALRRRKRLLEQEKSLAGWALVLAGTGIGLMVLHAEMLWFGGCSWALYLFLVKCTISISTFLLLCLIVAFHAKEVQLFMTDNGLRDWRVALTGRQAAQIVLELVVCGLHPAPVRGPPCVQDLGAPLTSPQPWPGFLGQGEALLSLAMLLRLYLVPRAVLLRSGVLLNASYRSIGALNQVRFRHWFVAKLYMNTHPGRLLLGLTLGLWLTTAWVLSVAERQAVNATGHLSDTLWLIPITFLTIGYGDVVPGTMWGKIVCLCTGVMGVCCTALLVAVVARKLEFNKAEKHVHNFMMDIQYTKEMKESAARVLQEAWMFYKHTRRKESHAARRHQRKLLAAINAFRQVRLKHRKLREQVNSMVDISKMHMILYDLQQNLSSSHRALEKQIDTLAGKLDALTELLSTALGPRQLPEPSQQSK"},
  "source": "patent US7531573B2",
  "about": "(priority 1994, dated 2009)",
  "key": {"[1]": {"target": "Gardos channel of erythrocytes (Homo sapiens, UniProt O15554)"}, "[2]": {"system": "NIH 3T3 mouse fibroblast cells", "experiment": "Mitogen-induced cell proliferation", "format": "cell-based"}},
  "data": [
    {"smiles": "CON(C)C(=O)CC(c1ccccc1)(c1ccccc1)c1ccccc1Cl", "values": [
      {"measurement": "Gardos Channel % Inhibition", "setting": "[1]; measured at 10 μM", "result": 99.6, "unit": "%"},
      {"measurement": "IC50", "setting": "[1]; read-out: Gardos Channel IC50", "result": 459, "unit": "nM"},
      {"measurement": "Mitogen-induced cell proliferation % Inhibition", "setting": "[2]; measured at 10 μM", "result": 92.0, "unit": "%"},
      {"measurement": "IC50", "setting": "[2]; read-out: Mitogen-induced cell proliferation IC50", "result": 1200, "unit": "nM"}
    ]}
  ]
}
